Data reported in PMC6658735 (Biomaterials, 2019).

Test system: AM microtissues
Conditions: 3 d treatment over a wide range of doses, cell viability at day 3

With Penicillin the “toxicity on the AM development (dose-response, in words)” value was “no detectable toxicity”.
